Source: patent US5932619A, “Method for preventing sexually transmitted diseases” (Rush-Presbyterian, St. Luke's Medical Center, priority 1997, dated 1999)

Tested on: spermatozoa
Assay type: cell-based

SMILES: O=C(O)C(OC(C(=O)O)c1ccccc1)c1ccccc1 (stereo not shown) [H2 SO4 -modified Mandelic Acid, 2,2'-diphenyl-2,2'-oxy-di-acetic acid]
- cytotoxic activity towards spermatozoa: no cytotoxic activity
